The text below walks through data of PMC7156492.

Assay [1] concerns the target 30S proteasome (2 RP, 1 CP) (bovine (endogenous in heart tissue)). Briefly: mass photometry; purified bovine proteasomes, 50 nM, 25 mM BisTris, 50 mM KCl, 5 mM MgCl2, 20% glycerol, 4 mM ATP, 1 mM DTT, 4 °C; also with 50-500 mM NaCl for 2 h on ice.
Assay [2] deals with 26S proteasome (1 RP and 1 CP) (bovine (endogenous in heart tissue)). The assay is described as above.

Consider adapter protein Ecm29 (natural protein), for which the stoichiometry N in assay [1] and in assay [2] was 1 in each case.
